Earlier results as cited in patent publication US20040072205A1, “Methods for treating neuronal disorders” (priority 2002, published 2004).

Tested on: human patients with ALS
Details: cited from earlier work

Structure (SMILES): Nc1nc2ccc(OC(F)(F)F)cc2s1 [riluzole]
- extension of survival: approximately three
